System: Nc1ncnc2c1ncn2[C@@H]1O[C@H](COP(=O)(O)OP(=O)(O)OP(=O)(O)O)[C@@H](O)[C@H]1O
Assay: purified protein
Conditions: 50 mM Tris pH 8.0, 10 mM MgCl2, 30 °C, 2 µM enzyme, monomer-dodecamer mixture, Hill coefficient 1.931±0.115

YsaN-His (YsaN; YE3544) (Yersinia enterocolitica subsp. enterocolitica 8081)
K0.5: 714 ± 14.84 µM

Source: paper PMC3790809
